According to ChEMBL document CHEMBL5727175, “Inhibitors of beta-secretase” (2019):
pIC50: −log10 of the molar value. Several values for one entry are separate records, joined by “and”; a condition that tells them apart may be missing. Equal values may be shown once.

Biological target: Beta-secretase 1 (Homo sapiens, UniProt P56817)
Assay: BACE Assay: For each compound being tested, the BACE activity was monitored in a fluorescence quenching assay (FRET) using the ectodomain of BACE (aa 1-454) fused to a myc-his tag and secreted from HEK293/BACEect. cells into OptiMEM (Invitrogen) as enzyme source and a substrate peptide derived from the APP-Swedish mutation which possesses a Cy3-fluorophore at the N-terminus and a Cy5Q-quencher at

COC1CCC2(CC1)Cc1ccc(Br)cc1C21N=C(N)N(C)C1=O (stereo unspecified)
pIC50: 8.48 and 8.31
